The results in this text go back to ChEMBL document CHEMBL1143706, “Design, synthesis, and biological evaluation of novel bifunctional C-terminal-modified peptides for delta/mu opioid receptor agonists and neurokinin-1 receptor antagonists” (J Med Chem, 2007).

The assay in a line: Ratio of IC50 for mu opioid receptor in GPI assay to IC50 for delta opioid receptor in MVD assay. It is filed as functional.

Take `C[C@@H](NC(=O)[C@@H](N)Cc1ccc(O)cc1)C(=O)NCC(=O)N[C@@H](Cc1ccccc1)C(=O)NNC(=O)[C@H](Cc1ccccc1)NC(=O)CNC(=O)[C@@H](C)NC(=O)[C@@H](N)Cc1ccc(O)cc1`: the Ratio IC50 amounted to 3.2.
